The target in data set [1] is K315A mutant δ-crystallin (goose) (goose) (UniProt P33110). The data set is described as follows: AUC; sedimentation velocity, c(s) and c(s, f/f0) analysis, no urea, 0.2 mg/mL protein, 20°C, 50 mM Tris-acetic acid buffer pH 7.5.
Another data set relates to P33110. Kind of data set: AUC; sedimentation velocity, c(s) analysis, wild type in 2.5, 3.0 and 3.5 M urea, 0.2 mg/mL protein, 20°C; dimer to monomers.
Data set [2] concerns the target wild-type δ-crystallin (goose) (goose) (UniProt P33110). The data set is described as follows: AUC; sedimentation velocity, c(s) and c(s, f/f0) analysis, no urea, 0.2 mg/mL protein, 20°C, 50 mM Tris-acetic acid buffer pH 7.5.
Data set [3] shares this target. The data set is described as follows: AUC; sedimentation velocity, c(s) analysis, wild type in 2.5, 3.0 and 3.5 M urea, 0.2 mg/mL protein, 20°C; dimer to monomers.

By stoichiometry N is commonly meant the number of molecules, sites or subunits per partner or assembly. As to “K315A mutant δ-crystallin (goose) (from UniProt P33110 2-466) (natural protein)”, the stoichiometry N in data set [1] amounted to 4.
With wild-type δ-crystallin (goose), in the data set with P33110, the “proportion of the monomeric peak at 2.5 M urea” value is on record as “increased from 6% to 27% to 60%”, the “proportion of the monomeric peak at 3.0 M urea” value is reported as “increased from 6% to 27% to 60%” and the “proportion of the monomeric peak at 3.5 M urea” value is “increased from 6% to 27% to 60%”.
In the case of “wild-type δ-crystallin (goose) (from UniProt P33110 2-466) (natural protein)”, the stoichiometry N was found to be 4 in data set [2] and 2 in data set [3].

For the origin of these results see publication PMC4701392.
